For one data set, the system named is male F344 rats. Description: Fentanyl intravenous self-administration. The settings on record: single injection 40 mg/kg.
Data set [1] is described as follows: Body mass measurements during the fentanyl intermittent access study. The settings on record: repeated administration.
For another data set, the system named is Fisher F-344 rats. Put plainly: Intermittent access fentanyl self-administration with progressive ratio probes.

Regarding `CCC1CC2CC3c4oc5ccc(O)cc5c4CCN(C2)C13` (stereo not shown) [oxa-noribogaine], in the data set on male F344 rats, the “duration of observable suppression trends of fentanyl intake” value is “at least 5 days”. Besides, the “duration of statistically significant suppression of fentanyl intake” value in the data set with male F344 rats stood at 4 days. The body weight entry in data set [1] is “no effect on the body weight of test subjects”. For the same compound, the figures for the “decrease in PR breaking point value post treatment” value with Fisher F-344 rats (subject #739), with Fisher F-344 rats (subject #746) and in the data set with Fisher F-344 rats (subject #756) were 228%, 659% and 47%, respectively. Moreover, the “increase in PR breaking point value post treatment” value with Fisher F-344 rats (subject #741) turned out to be 12%.

The record behind these values is patent publication US20240150372A1 (priority 2021, published 2024).
